# Antibody variant affinities, Ab-14 heavy chain, assay 1

Data: MIT Lincoln Laboratory AlphaSeq set, Engelhart et al. 2022, doi:10.1038/s41597-022-01779-4, as distributed in FLAb.

Target: peptide PDVDLGDISGINAS, taken from heptad repeat 2 (HR2) of SARS-CoV-2 spike.

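The starting antibody came from a phage panning campaign against this peptide. AAYL49 was designed without a model: most single CDR substitutions and a random sample of double and triple ones. AlphaSeq pools MATa yeast showing the antibodies with MATalpha yeast showing the peptide. Pairs that bind mate more often; barcode pairs of the diploids are counted by sequencing. Scores were corrected for input abundance and mapped to Kd with protein pairs of known affinity run in the same pool. Each pool was mated in three replicate cultures.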

Ab-14 is the parent antibody, in scFv form: VH, then a (GGGGS)3 linker, then VL. The light chain is unchanged in all variants.
VH: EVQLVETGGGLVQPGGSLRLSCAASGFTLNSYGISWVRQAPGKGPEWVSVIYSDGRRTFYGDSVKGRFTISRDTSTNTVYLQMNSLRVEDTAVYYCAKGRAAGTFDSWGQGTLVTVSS
VL: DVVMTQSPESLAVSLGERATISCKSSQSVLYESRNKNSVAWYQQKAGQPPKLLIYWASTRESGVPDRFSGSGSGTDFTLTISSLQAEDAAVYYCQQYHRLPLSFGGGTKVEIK

Positions count from residue 1 of the parent VH; N30T puts T in place of N. Affinities are written as log10 Kd with Kd in nM; a lower number is a better binder. The mean shown is taken over the replicates in which the pair was detected. An entry "nd" has no value in the source: the pair was not observed among the diploids in any replicate. This suggests poor binding but is not conclusive. Order: sorted from the lowest average up, undetected variants last. Background: pairings of library AAYL49 with three empty control strains gave a value in 15% of cases (median 4.06, 5th percentile 2.83). Values in that range, when seen in few replicates, are hard to tell from nonspecific mating. In this assay the parent's reference entry averaged 0.65; its copy inside this library read 4.11 (one replicate of three).

| changes | log10 Kd (nM), mean | detected |
|---|---|---|
| N30T S53V A101V | 1.12 | 3 of 3 |
| G61C R100N | 1.20 | 3 of 3 |
| F27N V64F S107E | 1.23 | 3 of 3 |
| F27Y I51G A101V | 1.76 | 3 of 3 |
| T28P T58S K65M | 1.97 | 3 of 3 |
| R57F T58L | 3.42 | 1 of 3 |
| G33S S35H V50A | 3.55 | 1 of 3 |
| F27C S53N K65C | 3.57 | 1 of 3 |
| Y52L R56Q K65V | 3.59 | 1 of 3 |
| I34L S35A T58K | 3.66 | 1 of 3 |
| N30A S31K Y52E | 3.69 | 2 of 3 |
| T28K Y52L A102N | 3.89 | 1 of 3 |
| V64T T104Y F105V | 3.90 | 1 of 3 |
| V50S G55T R57S | 4.00 | 2 of 3 |
| Y60T G99V | 4.24 | 2 of 3 |
| N30H Y60N V64F | 4.28 | 1 of 3 |
| S35G G55F | 4.31 | 2 of 3 |
| R57G G99H R100E | 4.39 | 2 of 3 |
| V50T S53W T104P | 4.58 | 1 of 3 |
| Y60V K65M A102S | 4.77 | 3 of 3 |
| L29E G55M T58N | 4.83 | 1 of 3 |
| G61Q V64Y A102E | 4.83 | 2 of 3 |
| S35M Y52C G61Y | 4.88 | 1 of 3 |
| N30D G33D G103D | 5.05 | 1 of 3 |
| G26K Y32S V50K | 5.06 | 3 of 3 |
| A102P F105S S107L | 5.19 | 1 of 3 |
| Y32V S53M | 5.20 | 2 of 3 |
| L29N D54H | 5.26 | 3 of 3 |
| S35L A102S G103T | 5.38 | 1 of 3 |
| T28M V50S R56I | 5.47 | 2 of 3 |
| G26C Y60S A102G | nd | 0 of 3 |
| S35P R57N G99C | nd | 0 of 3 |
| G33I I34E G99N | nd | 0 of 3 |
| G33C V64I | nd | 0 of 3 |
| G26Q I34M R57S | nd | 0 of 3 |
| G99Y D106G | nd | 0 of 3 |
| V50R G99M | nd | 0 of 3 |
| I34P D54G T104L | nd | 0 of 3 |
| I34L T58D F59P | nd | 0 of 3 |
| R56C V64I F105Y | nd | 0 of 3 |
| L29H R56N A102D | nd | 0 of 3 |
| G26R T104M S107A | nd | 0 of 3 |
| S63Y V64I T104G | nd | 0 of 3 |
| T28A G33I F105M | nd | 0 of 3 |
| S53V A102V | nd | 0 of 3 |
| S35V G103L F105M | nd | 0 of 3 |
| G26V T58D R100I | nd | 0 of 3 |
| G26Y L29C R56A | nd | 0 of 3 |
| Y52K T58P V64T | nd | 0 of 3 |
| G55Y R56K F105G | nd | 0 of 3 |
| T28Q D62Q | nd | 0 of 3 |
| N30L Y52D R57K | nd | 0 of 3 |
| Y32S Y52M R56H | nd | 0 of 3 |

Top 3 of the variants detected in all replicates, tightest first:

| changes | log10 Kd (nM), mean | detected |
|---|---|---|
| N30T S53V A101V | 1.12 | 3 of 3 |
| G61C R100N | 1.20 | 3 of 3 |
| F27N V64F S107E | 1.23 | 3 of 3 |